Experimental findings from ChEMBL document CHEMBL4346723, “Targeting tropomyosin receptor kinase for cancer therapy” (Eur J Med Chem, 2019) are described below.

The chains behind the UniProt entries cited, without tags or fusion partners. Where a name states a change or a piece, a line headed by the entry shows the natural chain unless it says otherwise.
UniProt Q16620, whole entry: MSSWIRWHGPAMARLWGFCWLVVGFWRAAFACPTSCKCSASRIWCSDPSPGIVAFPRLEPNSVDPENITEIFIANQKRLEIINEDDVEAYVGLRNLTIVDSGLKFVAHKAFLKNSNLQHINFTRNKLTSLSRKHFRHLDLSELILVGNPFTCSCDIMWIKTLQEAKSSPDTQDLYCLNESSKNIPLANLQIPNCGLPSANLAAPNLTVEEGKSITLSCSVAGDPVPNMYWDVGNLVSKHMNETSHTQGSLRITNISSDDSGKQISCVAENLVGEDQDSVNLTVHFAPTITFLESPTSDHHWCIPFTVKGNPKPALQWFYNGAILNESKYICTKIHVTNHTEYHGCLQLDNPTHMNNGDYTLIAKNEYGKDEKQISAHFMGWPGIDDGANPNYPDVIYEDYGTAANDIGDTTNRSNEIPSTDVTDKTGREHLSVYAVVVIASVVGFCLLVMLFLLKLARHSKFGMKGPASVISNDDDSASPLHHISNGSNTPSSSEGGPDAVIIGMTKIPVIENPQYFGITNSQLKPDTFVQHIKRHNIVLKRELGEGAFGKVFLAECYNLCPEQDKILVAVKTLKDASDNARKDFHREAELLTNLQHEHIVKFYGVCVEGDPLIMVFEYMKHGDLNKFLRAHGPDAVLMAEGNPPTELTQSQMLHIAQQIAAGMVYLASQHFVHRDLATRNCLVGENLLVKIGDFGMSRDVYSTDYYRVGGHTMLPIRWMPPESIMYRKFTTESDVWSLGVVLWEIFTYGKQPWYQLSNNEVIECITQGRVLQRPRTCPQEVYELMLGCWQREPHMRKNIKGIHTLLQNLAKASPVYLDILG
UniProt P12931: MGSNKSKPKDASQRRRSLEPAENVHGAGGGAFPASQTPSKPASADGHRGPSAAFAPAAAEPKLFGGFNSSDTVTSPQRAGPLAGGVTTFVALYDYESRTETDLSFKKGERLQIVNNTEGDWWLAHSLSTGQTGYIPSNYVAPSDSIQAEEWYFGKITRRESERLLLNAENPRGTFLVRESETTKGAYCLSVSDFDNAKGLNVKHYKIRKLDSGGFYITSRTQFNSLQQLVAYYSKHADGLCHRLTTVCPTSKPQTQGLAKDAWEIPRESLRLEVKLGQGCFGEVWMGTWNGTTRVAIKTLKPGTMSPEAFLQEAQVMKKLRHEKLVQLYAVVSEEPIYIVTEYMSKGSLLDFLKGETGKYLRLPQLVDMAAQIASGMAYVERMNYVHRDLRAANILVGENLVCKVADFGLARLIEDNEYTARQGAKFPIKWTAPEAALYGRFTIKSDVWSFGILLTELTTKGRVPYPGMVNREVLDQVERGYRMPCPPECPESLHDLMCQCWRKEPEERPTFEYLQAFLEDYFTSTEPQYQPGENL

The structures appear in SMILES notation. pIC50: −log10 of the molar value.

Experiment [1] has as its target BDNF/NT-3 growth factors receptor (Homo sapiens, UniProt Q16620). Kind of experiment: Inhibition of TRKB (unknown origin).
Experiment [2] addresses Proto-oncogene tyrosine-protein kinase Src (Homo sapiens, UniProt P12931).

A word on the pIC50: it is the IC50 on a negative log10 scale, so that one unit is a factor of ten. For `Cc1cn(-c2cc(C(=O)Nc3cccc(Nc4ccc5c(c4)NC(=O)/C5=C\c4ccc[nH]4)c3)cc(C(F)(F)F)c2)cn1`, the values for the pIC50 in experiment [1] and in experiment [2] were 7.85 and 7.28, respectively.
